Source: ChEMBL document CHEMBL1132398, “Identification of (-)-cis-6-acetyl-4S-(3-chloro-4-fluoro-benzoylamino)- 3,4-dihydro-2,2-dimethyl-2H-benzo[b]pyran-3S-ol as a potential antimigraine agent” (Bioorg Med Chem Lett, 1999)

What was measured:
Mus musculus [1] = assay: In vivo percent increase in seizure threshold in mouse MEST model 4 hours following 10 mg/kg p.o.; conditions: at 10 mg/kg
Mus musculus [2] = assay: In vivo percent increase in seizure threshold in mouse MEST model 1 hour following 10 mg/kg p.o.; conditions: at 10 mg/kg

| Compound | Increase (Mus musculus [1]) | Increase (Mus musculus [2]) |
| --- | --- | --- |
| CC(=O)c1ccc2c(c1)[C@H](NC(=O)c1ccccc1Cl)[C@H](O)C(C)(C)O2 | 424% | 8.4% |
| CC(=O)c1ccc2c(c1)[C@H](NC(=O)c1cccc(Cl)c1Cl)[C@H](O)C(C)(C)O2 | 768% | 116% |
| CC(=O)c1ccc2c(c1)[C@H](NC(=O)c1ccccc1Cl)[C@@H](O)C(C)(C)O2 | 478% | – |
| CC(=O)c1ccc2c(c1)[C@H](NC(=O)c1cccc(Cl)c1Cl)[C@@H](O)C(C)(C)O2 | 1070% | 146% |
